Source: patent US5886190A, “Rapid synthesis and use of 18F-fluoromisonidazole and analogs” (priority 1997, dated 1999)

Tested on: mammary tumor
Assay: Autoradiographic studies in tumor-bearing rats
Details: in vivo
Protocol: The synthesis scheme for [^18 F]FETNIM is depicted in FIG. 6. Biodistribution studies of [^18 F]FETNIM were performed at 1, 2 and 4 hours in mammary tumor-bearing rats (10 μCi, iv, N=3/time interval). Autoradiograms were performed at 1 hour postinjection of [^18 F]FETNIM, and a comparison has been made with [^18 F]fluoromisonidazole (FMISO). Intratumoral oxygen tension measurements were performed using the Eppendorf computerized histographic system. Twenty to twenty-five pO2 measurements along each of 2 to 3 linear tracks were performed at 0.4 mm intervals on each tumor. PET imaging studies of [^18 F]FETNIM were performed in rabbits bearing V2 tumors (N=3, 4 mCI, iv) which were located on the right leg.
Female Fischer 344 mammary tumor-bearing rats (n=3) after receiving [^18 F]FETNIM (2 mCi, iv) were sacrificed at 1 h. […] The rats were sacrificed at 1 hour postinjection. The rat body was fixed in a carboxymethyl cellulose (4%) block. The frozen body in a block was mounted to a cryostat (LKB 2250 cryo-microtome, Ijamsville, Md.) and 40 μm coronal sections were made. The section was freeze dried, then mounted on a x-ray film (X-Omat AR, Kodak, Rochester, N.Y.) for 24 hours.

For `OC[C@H]1OC(O)[C@H]([18F])[C@@H](O)[C@@H]1O` (some centres unmarked) [[^18 F]FDG, [^18 F]fluorodeoxyglucose, reference compound], which “Distribution in tumor-bearing rat” value is on record?
Its value is “different from [^18 F]FETNIM and [^18 F]FMISO”.

What about the “Autoradiogram: metabolic activity of tumor” value (rat) of the same compound?
The value was “the tumor was metabolically active”.
